From patent US7132425B2, “5-substituted-six-membered heteroaromatic glucokinase activators” (Hoffmann-La Roche Inc., priority 2002, dated 2006) come the findings set out here.

The test concerns C57BL/6J mice. As to the kind of experiment: Glucokinase activator in vivo screen (blood glucose after oral dosing). Conditions: oral gavage 50 mg/kg after two hour fast, readings 1, 2, 4 and 6 hours post dose, p≦0.05 for two consecutive assay time points. As for the experimental part: Glucokinase Activator in vivo Screen Protocol: C57BL/6J mice are orally dosed via gavage with Glucokinase (GK) activator at 50 mg/kg body weight following a two hour fasting period. Blood glucose determinations are made five times during the six hour post-dose study period.
Mice (n=6) are weighed and fasted for a two hour period prior to oral treatment. GK activators are formulated at 6.76 mg/ml in Gelucire vehicle (Ethanol:Gelucire44/14:PEG400q.s. 4:66:30 v/w/v. Mice are dosed orally with 7.5 μL formulation per gram of body weight to equal a 50 mg/kg dose. Immediately prior to dosing, a pre dose (time zero) blood glucose reading is acquired by snipping off a small portion of the animal's tail (˜1 mm) and collecting 15 μL blood into a heparinized capillary tube for analysis. Following GK activator administration, additional blood glucose readings are taken at 1, 2, 4 and 6 hours post dose from the same tail wound. Results are interpreted by comparing the mean blood glucose values of six vehicle treated mice with six GK activator treated mice over the six hour study duration.
Take `CSc1cnc(NC(=O)[C@H](CC2CCCC2)c2ccc(S(C)(=O)=O)c(Cl)c2)cn1` [Example 4, 2(R)-(3-Chloro-4-methanesulfonyl-phenyl)-3-cyclopentyl-N-(5-methylsulfanyl-pyrazin-2-yl)-propionamide]: the “decrease in blood glucose compared to vehicle” value (shortened to “decrease in blood glucose”) is reported as “statistically significant (p≦0.05) decrease in blood glucose”.
With `CS(=O)(=O)Cc1cnc(NC(=O)[C@H](CC2CCCC2)c2ccc(S(C)(=O)=O)c(Cl)c2)cn1` [Example 31, 2(R)-(3-Chloro-4-methanesulfonyl-phenyl)-3-cyclopentyl-N-(5-methanesulfonylmethyl-pyrazin-2-yl)-propionamide], the “decrease in blood glucose” value is recorded as “statistically significant (p≦0.05) decrease in blood glucose”.
The value for `CS(=O)(=O)c1ccc([C@@H](CC2CCCC2)C(=O)Nc2cnc(OC[C@H](O)CO)cn2)cc1Cl` [Example 44] was “statistically significant (p≦0.05) decrease in blood glucose”.
Next, `CS(=O)(=O)c1ccc([C@@H](CC2CCCC2)C(=O)Nc2cnc(OC[C@@H](O)CO)cn2)cc1Cl` [Example 49, 2(R)-(3-Chloro-4-methanesulfonyl-phenyl)-3-cyclopentyl-N-[5-(2(S),3-dihydroxy-propoxy)-pyrazin-2-yl]-propionamide]: “statistically significant (p≦0.05) decrease in blood glucose”; `CS(=O)(=O)c1ccc([C@@H](CC2CCCC2)C(=O)Nc2cnc(C#CC3(O)CCOCC3)cn2)cc1Cl` [Example 50, 2(R)-(3-Chloro-4-methanesulfonyl-phenyl)-3-cyclopentyl-N-[5-(4-hydroxy-tetrahydropyran-4-yl-ethynyl)-pyrazin-2-yl]-propionamide]: “statistically significant (p≦0.05) decrease in blood glucose”.
The value for `CC(C)(O)C#Cc1cnc(NC(=O)[C@H](CC2CCCC2)c2ccc(S(C)(=O)=O)c(Cl)c2)cn1` [Example 52, 2(R)-(3-Chloro-4-methanesulfonyl-phenyl)-3-cyclopentyl-N-[5-(3-hydroxy-3-methyl-but-1-ynyl)-pyrazin-2-yl]-propionamide] was “statistically significant (p≦0.05) decrease in blood glucose”.
Turning to `CC(C)(O)[C@@H](O)c1cnc(NC(=O)[C@H](CC2CCCC2)c2ccc(S(C)(=O)=O)c(Cl)c2)cn1` [Example 66, 2(R)-(3-Chloro-4-methanesulfonyl-phenyl)-3-cyclopentyl-N [5-(1(S),2-dihydroxy-2-methyl-propyl)-pyrazin-2-yl]-propionamide], the “decrease in blood glucose” value is listed as “statistically significant (p≦0.05) decrease in blood glucose”.
